Measured values taken from US20260130907A1 (DANA-FARBER CANCER INSTITUTE, INC., priority 2022, published 2026).

Experiments:
B cell lymphoma 6 (BCL6) = B cell lymphoma 6 (BCL6) (Homo sapiens, UniProt P41182); assay: HiBiT cellular degradation assay in SU-DHL-4 cells; format: cell-based; settings: for BCL6 degrader status (in words): conclusion drawn from Table 1; for DC50: read-out: HiBiT SU-DHL-4 DC50, concentration to reach 50% degradation of endogenous SmBiT-tagged BCL6, SU-DHL-4 cells, 24 hours of compound treatment
Kinetic solubility = settings: for Kinetic solubility @pH 7.4: 50 mM phosphate buffer pH 7.4, 24 hours at room temperature
[1] = Metabolic stability in human liver microsome; settings: human liver microsomes with NADPH, 37° C., 0-60 min

BCL6 degrader status (in words) (B cell lymphoma 6 (BCL6))	DC50 (B cell lymphoma 6 (BCL6))	Kinetic solubility @pH 7.4 (Kinetic solubility)	Human Liver Microsome Stability Clint [1]	Kinetic solubility (FaSSIF) (Kinetic solubility; FaSSIF)	Kinetic solubility (FeSSIF) (Kinetic solubility; FeSSIF)	Compound
degraders of BCL6	0.012 µM	403.5 μM	4.3 µL/min/mg	–	–	CC1CN(c2ncc(Cl)c(Nc3ccc4c(c3)n(CCC(C)(C)O)c(=O)n4C)n2)CC(CCN)C1(F)F (stereo not shown)
degraders of BCL6	0.039 µM	<1.56 μM	6.9 µL/min/mg	50.8 µM	244 µM	CNC(=O)COc1cc2cc(Nc3nc(N4CC(C)C(F)(F)C(CN)C4)ncc3Cl)ccc2n(C)c1=O (stereo not shown)
